# Measured values as given in ChEMBL document CHEMBL5360528, “A systematic review on the kappa opioid receptor and its ligands: New directions for the treatment of pain, anxiety, depression, and drug abuse” (Eur J Med Chem, 2022).
# Chains of the proteins cited; added tags and fusions are not shown. Lines headed by an entry give the natural chain unless they say otherwise; changes in a name come on top.
# UniProt P41145: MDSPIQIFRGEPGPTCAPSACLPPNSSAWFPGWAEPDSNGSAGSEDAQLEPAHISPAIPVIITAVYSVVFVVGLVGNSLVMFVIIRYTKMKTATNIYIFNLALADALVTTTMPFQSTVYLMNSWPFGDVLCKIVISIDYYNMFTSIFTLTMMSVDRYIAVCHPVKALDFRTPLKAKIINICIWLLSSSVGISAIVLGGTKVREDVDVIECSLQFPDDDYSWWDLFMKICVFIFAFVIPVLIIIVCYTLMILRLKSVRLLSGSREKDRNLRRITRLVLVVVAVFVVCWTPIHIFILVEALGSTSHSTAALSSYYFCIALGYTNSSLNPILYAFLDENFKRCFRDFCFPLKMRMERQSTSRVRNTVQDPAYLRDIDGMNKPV
# UniProt P41144: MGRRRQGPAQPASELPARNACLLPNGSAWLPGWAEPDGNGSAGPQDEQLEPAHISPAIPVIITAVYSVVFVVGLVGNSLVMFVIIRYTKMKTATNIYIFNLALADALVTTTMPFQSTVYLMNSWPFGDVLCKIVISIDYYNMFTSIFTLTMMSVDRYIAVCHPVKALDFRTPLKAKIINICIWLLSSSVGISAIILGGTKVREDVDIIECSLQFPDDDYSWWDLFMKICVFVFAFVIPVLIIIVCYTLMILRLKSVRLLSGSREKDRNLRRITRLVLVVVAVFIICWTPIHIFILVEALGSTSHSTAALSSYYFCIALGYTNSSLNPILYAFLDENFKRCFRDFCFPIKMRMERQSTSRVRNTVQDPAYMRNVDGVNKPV
# Legend:
# [1] = target: Kappa-type opioid receptor (Homo sapiens, UniProt P41145); experiment: Binding affinity to KOR (unknown origin) assessed as inhibition constant
# [2] = target: Kappa-type opioid receptor (Cavia porcellus, UniProt P41144); experiment: Agonist activity at KOR in guinea pig brain membranes assessed as stimulation of [35S]GTPgammaS binding measured after 1 hr by liquid scintillation counting analysis relative to control; format: functional, cell membranes, Membrane
compound,measurement,setting,value
C[C@H]1[C@H]2Cc3ccc(C(N)=O)cc3[C@@]1(C)CCN2CC1CC1,Ki,[1],0.42 nM
same,EC50,[2],8.8 nM
